# Binding of CDR-mutated scFvs to a peptide of the spike HR2 region

Source: Engelhart et al. 2022 (doi:10.1038/s41597-022-01779-4), MIT Lincoln Laboratory and A-Alpha Bio; data file from the FLAb repository.

Target: peptide PDVDLGDISGINAS, taken from heptad repeat 2 (HR2) of SARS-CoV-2 spike.

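Phage display of a naive human antibody library on the peptide gave the parent. In library AAYL51, one, two or three CDR residues were substituted; doubles and triples were drawn at random. In AlphaSeq, yeast of one mating type display the scFv and yeast of the other type display the target. Mating (16 h, 30 °C) was followed by selection of diploids and sequencing of their barcodes. Read counts were normalised to the haploid input and turned into Kd by a linear fit to BCL2-family pairs of known affinity, for each replicate. The assay was run in three technical replicates.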

Parent scFv Ab-91: VL joined to VH by three GGGGS repeats. Changes lie in the heavy chain CDRs alone.
VL: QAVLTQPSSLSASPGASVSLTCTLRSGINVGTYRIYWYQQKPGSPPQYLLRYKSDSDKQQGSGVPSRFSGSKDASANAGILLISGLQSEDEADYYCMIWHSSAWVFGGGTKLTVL
VH: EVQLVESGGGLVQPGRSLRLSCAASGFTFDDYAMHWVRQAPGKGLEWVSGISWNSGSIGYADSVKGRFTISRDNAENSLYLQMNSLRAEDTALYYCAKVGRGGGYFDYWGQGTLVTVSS

The whole VH of each variant is written out.
Affinities are written as log10 Kd with Kd in nM; a lower number is a better binder.
A mean of the replicates is given; it leaves out those without a signal.
"ND" marks a missing value. The strain was present, yet no cells mated with the target were sequenced in that replicate, which points to weak or no binding.
Three control strains display no target. For library AAYL51, 21% of the pairings with them gave a signal, with a median of 4.54 and one signal in twenty below 3.26, so weak values seen in few replicates may be background. The control count says in how many pairings with the empty strains this scFv gave a signal, with their mean in brackets.
For reference, the parent read 1.86 as the reference entry and 0.88 as a member of this library.

| VH | replicates, log10 nM | mean, log10 nM | control signals |
|---|---|---|---|
| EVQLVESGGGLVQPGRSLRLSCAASGFTFDDYAMHWVRQAPGKGLEWVSGMSWNSGSIGYAASVKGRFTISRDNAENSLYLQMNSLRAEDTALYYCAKVGRGGGYFHYWGQGTLVTVSS | 4.67 / ND / 5.81 | 5.24 | 6 of 9 (5.17) |
| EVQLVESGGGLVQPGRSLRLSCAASGFTFDDYAMHWVRQAPGKGLEWVSGISWNSGSIHYADSVYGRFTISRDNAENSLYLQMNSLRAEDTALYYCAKVGRGGGSFDYWGQGTLVTVSS | 4.67 / ND / 4.42 | 4.54 | 2 of 9 (4.34) |
| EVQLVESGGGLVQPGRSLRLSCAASGFTFDDYAMHWVRQAPGKGLEWVSGISWNNGSIGYADTVKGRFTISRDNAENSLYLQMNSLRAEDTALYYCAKVGRGGGYFDYWGQGTLVTVSS | ND / ND / ND | ND | 2 of 9 (3.98) |
| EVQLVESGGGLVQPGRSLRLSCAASGFCFDCYAMHWVRQAPGKGLEWVSGISWNSGSIGYADSVKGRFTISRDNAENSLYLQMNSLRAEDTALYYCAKVGRGGGYSDYWGQGTLVTVSS | 1.15 / 0.92 / 0.79 | 0.95 | 0 of 9 |
| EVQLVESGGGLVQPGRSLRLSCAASGFTRDDAAMHWVRQAPGKGLEWVSGSSWNSGSIGYADSVKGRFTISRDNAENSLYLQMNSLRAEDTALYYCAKVGRGGGYFDYWGQGTLVTVSS | ND / 4.69 / ND | 4.69 | 2 of 9 (4.93) |
| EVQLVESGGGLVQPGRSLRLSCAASAFTFDDYAMHWVRQAPGKGLEWVSGIPGNSGSIGYADSVKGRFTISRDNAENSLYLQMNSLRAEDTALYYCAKVGRGGGYFDYWGQGTLVTVSS | 3.70 / ND / ND | 3.70 | 0 of 9 |
| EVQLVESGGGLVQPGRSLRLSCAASGITFDDYAMHWVRQAPGKGLEWVSGISWISGSIGYADSVKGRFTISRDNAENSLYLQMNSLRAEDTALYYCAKVGRGGGYFDGWGQGTLVTVSS | ND / ND / ND | ND | 0 of 9 |
| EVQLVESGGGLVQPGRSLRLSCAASGTTFLDYAMHWVRQAPGKGLEWVSGISWNSGSIGYADSCKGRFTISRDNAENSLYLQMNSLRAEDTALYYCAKVGRGGGYFDYWGQGTLVTVSS | 4.50 / ND / 5.27 | 4.89 | 3 of 9 (5.10) |
| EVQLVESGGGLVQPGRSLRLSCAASGFSFDDYHMHWVRQAPGKGLEWVSGISWNSGSIGYADSVKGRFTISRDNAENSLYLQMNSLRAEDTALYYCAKVWRGGGYFDYWGQGTLVTVSS | ND / 5.11 / ND | 5.11 | 1 of 9 (4.99) |
| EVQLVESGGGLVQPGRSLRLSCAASGFHFDDYAMHWVRQAPGKGLEWVSGISWNSGSIGYADSVKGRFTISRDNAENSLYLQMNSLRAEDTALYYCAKVGRGGGYFDYWGQGTLVTVSS | 0.85 / 0.72 / 0.13 | 0.57 | 1 of 9 (5.65) |
| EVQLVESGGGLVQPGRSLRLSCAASGFTFDDCAMGWVRQAPGKGLEWVSGISWNSGSIGYADSNKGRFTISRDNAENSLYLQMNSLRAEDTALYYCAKVGRGGGYFDYWGQGTLVTVSS | 5.31 / 5.74 / 4.83 | 5.29 | 5 of 9 (5.47) |
| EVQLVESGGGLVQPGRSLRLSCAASGFHFDDYAMHWVRQAPGKGLEWVSGISWNSGSIGYADAVKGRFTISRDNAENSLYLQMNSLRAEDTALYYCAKVGRGHGYFDYWGQGTLVTVSS | ND / 5.11 / 5.71 | 5.41 | 5 of 9 (5.41) |
| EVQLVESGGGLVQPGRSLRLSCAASGRTFDDYAMHWVRQAPGKGLEWVSGISWNSSSIGYADSVKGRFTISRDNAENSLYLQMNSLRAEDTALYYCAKDGRGGGYFDYWGQGTLVTVSS | ND / ND / ND | ND | 1 of 9 (4.99) |
| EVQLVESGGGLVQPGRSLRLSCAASLFTFDDYAMHWVRQAPGKGLEWVSGMSWNRGSIGYADSVKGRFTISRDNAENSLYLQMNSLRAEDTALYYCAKVGRGGGYFDYWGQGTLVTVSS | ND / ND / ND | ND | 0 of 9 |
| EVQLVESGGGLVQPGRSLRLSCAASGFTFDDYAMHWVRQAPGKGLEWVSTISWNSGSIGEADSVKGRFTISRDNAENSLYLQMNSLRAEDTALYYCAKVGRGGGYFDHWGQGTLVTVSS | ND / ND / ND | ND | 2 of 9 (3.91) |
| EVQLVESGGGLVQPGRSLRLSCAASDFTFDDYAMHWVRQAPGKGLEWVSGISWNSGSIGYADLVKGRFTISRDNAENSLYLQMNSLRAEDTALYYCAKVGRGGGYFDYWGQGTLVTVSS | ND / ND / ND | ND | 3 of 9 (4.41) |
| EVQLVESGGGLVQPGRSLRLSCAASGFTFDDYRMHWVRQAPGKGLEWVSGISWNSSMIGYADSVKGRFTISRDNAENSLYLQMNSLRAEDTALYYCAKVGRGGGYFDYWGQGTLVTVSS | 4.76 / 5.14 / 5.30 | 5.07 | 4 of 9 (4.54) |
| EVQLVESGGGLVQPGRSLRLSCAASGFTFDDHAMHWVRQAPGKGLEWVSGISWNSGSIGYVDSVKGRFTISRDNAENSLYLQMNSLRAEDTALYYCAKVGRGGGYFDYWGQGTLVTVSS | 2.72 / 3.48 / ND | 3.10 | 3 of 9 (3.28) |
| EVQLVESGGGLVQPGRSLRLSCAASGREFDDYAMHWVRQAPGKGLEWVSGISWNSGSIGYADSVKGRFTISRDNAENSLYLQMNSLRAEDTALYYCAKVGRGGGYGDYWGQGTLVTVSS | ND / ND / ND | ND | 1 of 9 (3.77) |
| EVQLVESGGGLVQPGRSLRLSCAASGFTFDDYAMHWVRQAPGKGLEWVSGISWNSGSIGPADSVKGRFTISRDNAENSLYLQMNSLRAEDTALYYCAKPERGGGYFDYWGQGTLVTVSS | ND / ND / ND | ND | 0 of 9 |
| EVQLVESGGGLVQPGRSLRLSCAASGFTFDDYAMHWVRQAPGKGLEWVSGDYWNSTSIGYADSVKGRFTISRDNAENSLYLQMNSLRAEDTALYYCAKVGRGGGYFDYWGQGTLVTVSS | 4.93 / ND / ND | 4.93 | 3 of 9 (4.69) |
| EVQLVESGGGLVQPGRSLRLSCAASGFTFDDYAMHWVRQAPGKGLEWVSGISWNSGSIGSADSVKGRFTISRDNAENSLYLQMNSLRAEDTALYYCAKHGRGGGYQDYWGQGTLVTVSS | ND / ND / ND | ND | 1 of 9 (2.94) |
| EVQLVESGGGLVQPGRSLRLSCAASGFTFRDYAMHWVRQAPGKGLEWVSYISWNSTSIGYADSVKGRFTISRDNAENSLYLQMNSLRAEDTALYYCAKVGRGGGYFDYWGQGTLVTVSS | 4.48 / 4.78 / 5.73 | 5.00 | 7 of 9 (4.91) |
| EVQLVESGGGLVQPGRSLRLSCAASGGTFDDYAMHWVRQAPGKGLEWVSLISWNSESIGYADSVKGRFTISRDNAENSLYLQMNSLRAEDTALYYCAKVGRGGGYFDYWGQGTLVTVSS | ND / ND / 4.72 | 4.72 | 1 of 9 (4.59) |